Sequences of proteins named here, by UniProt entry; tags and fusion partners are left off. Residues count along the entry.
UniProt P21589, 27-547 limits assumed: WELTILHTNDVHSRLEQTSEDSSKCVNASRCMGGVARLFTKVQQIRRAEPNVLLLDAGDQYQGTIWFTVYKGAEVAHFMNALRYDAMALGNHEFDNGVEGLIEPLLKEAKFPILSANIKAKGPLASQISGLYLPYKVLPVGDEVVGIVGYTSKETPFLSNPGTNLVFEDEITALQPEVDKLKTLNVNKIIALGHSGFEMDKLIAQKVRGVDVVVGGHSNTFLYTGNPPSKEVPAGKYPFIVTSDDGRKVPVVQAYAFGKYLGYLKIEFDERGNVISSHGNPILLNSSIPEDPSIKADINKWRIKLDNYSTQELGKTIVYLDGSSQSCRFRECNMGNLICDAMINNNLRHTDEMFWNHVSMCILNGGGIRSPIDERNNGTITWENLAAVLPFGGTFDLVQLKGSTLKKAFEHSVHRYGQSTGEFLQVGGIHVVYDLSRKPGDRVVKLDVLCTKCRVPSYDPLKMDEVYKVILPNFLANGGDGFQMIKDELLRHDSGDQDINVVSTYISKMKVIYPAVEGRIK
UniProt P21589, 27-549 limits assumed: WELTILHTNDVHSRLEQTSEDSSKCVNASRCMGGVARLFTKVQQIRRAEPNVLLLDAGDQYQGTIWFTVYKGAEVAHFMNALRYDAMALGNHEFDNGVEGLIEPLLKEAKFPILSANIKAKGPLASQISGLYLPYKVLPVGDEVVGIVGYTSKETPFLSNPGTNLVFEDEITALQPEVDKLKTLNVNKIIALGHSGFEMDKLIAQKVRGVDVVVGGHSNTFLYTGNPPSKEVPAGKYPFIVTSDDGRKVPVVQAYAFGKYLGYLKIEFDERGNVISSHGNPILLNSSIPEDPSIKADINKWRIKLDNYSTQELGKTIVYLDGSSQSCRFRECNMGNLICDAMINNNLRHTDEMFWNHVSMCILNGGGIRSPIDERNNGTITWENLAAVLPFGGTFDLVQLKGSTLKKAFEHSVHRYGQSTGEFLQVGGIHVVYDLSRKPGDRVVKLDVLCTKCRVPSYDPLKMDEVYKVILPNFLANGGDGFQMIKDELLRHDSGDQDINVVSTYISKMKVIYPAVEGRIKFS

In patent US12157755B2, “CD73 inhibitor, preparation method therefor and application thereof” (Abbisko Therapeutics Co., Ltd., priority 2019, dated 2024):

Experiments:
[1] = molecular target: CD73 enzymatic activity expressed on the cell surface of MDA-MB-231 cells (Homo sapiens, UniProt P21589); assay: Inhibition of CD73 enzymatic activity on the cell surface (Cell Titer Glo (CTG) experiment), MDA-MB-231 cells; conditions: read-out: Cellular activity IC50; MDA-MB-231 cells endogenously expressing CD73, AMP, 37° C. for 2 hours, CTG readout
Protocol: Human breast cancer cells MDA-MB-231 that endogenously express CD73 were used in the present invention to evaluate the inhibition of the compound against the CD73 enzymatic activity expressed on the cell surface. The cells used were from the Cell Bank of the Chinese Academy of Sciences. The specific experimental procedures were as follows:
1. Before the test, MDA-MB231 cells were seeded to a 96-well plate at 20000 cells/well;
2. In RPMI1640, 10% fetal bovine serum (Gibco, 10099-141), placed in a 5% CO2 incubator at 37° C. overnight (the cells were washed three times by using a serum-free RPMI medium right before the test):
3. […]
4. 25 μL of 1.2 mM AMP was added for incubation at 37° C. for 2 hours, 25 μL of supernatant was then collected from the cells and mix with 25 μL of 100 μM ATP, and then the concentration of AMP in the samples was determined by CTG (Promega, #G7573);
5. Then, a reduction ratio of the substrate AMP level in the cell culture supernatant collected after the reaction was quantitatively determined to evaluate the inhibitory effects of the examples of the present invention and the positive compounds against the CD73 enzymatic activity on the cell surface;
6. Finally, the concentration of the compound leading to half maximal inhibition of enzymatic activity (IC50) was determined using a four-parameter non-linear logistic model curve fit in Graphpad Prism.

CD73 = CD73 (Homo sapiens, UniProt P21589); assay: In vitro enzymatic activity against CD73 (malachite green test using soluble CD73); conditions: read-out: Enzymatic activity IC50, soluble CD73 36 ng/mL, 50 μM AMP, 30 minutes at 25° C.
Protocol: The malachite green test using soluble CD73, which is synthesized in vitro was used in the present invention to determine the characteristics of inhibitory activity of the compounds against CD73. The specific experimental procedures were as following:
1. The enzyme reaction in this experiment was carried out in 384-well plates, and CD73 (R&D systems #5795-EN-010) at a concentration of 36 ng/mL, the compounds at different concentrations and 50 μM AMP were incubated for 30 minutes at 25° C. in a 40 uL reaction system (consisting of 25 mM Tris pH 7.5, 5 mM MgCl2, and 0.005% Tween-20);
2. Then, 10 μL of malachite green solution (Sigma) was added to each well to terminate the reaction;
3. The concentration of resulting inorganic phosphate was determined according to the instructions of the reagent manufacturer;
4. The enzymatic activity of CD73 was calculated based on the concentration of the product, and then IC50 values were determined by non-linear regression analysis of the inhibition percentage of the compounds of the present invention at different concentrations.

- IC50 [1]: 0.508 nM
- IC50 (CD73): 3.37 nM
SMILES: C[C@H](Nc1nc(Cl)nc2c1ccn2[C@@H]1O[C@H](COP(=O)(O)CP(=O)(O)O)[C@@H](O)[C@H]1O)c1ccccc1F
